Patent publication US20260384449A1, “MACROCYCLIC AMINOPYRIDINE COMPOUNDS AS EGFR INHIBITORS” (published 2026)
Like-named read-outs stand apart in the source and are kept apart here.

Chains of the proteins cited; added tags and fusions are not shown. Lines headed by an entry give the natural chain unless they say otherwise; changes in a name come on top. A line that says so, or that is headed by a name, gives the form on record, which may keep a tag or linker. Residues count along the entry.
UniProt P00533, 25-1210 C797S/L858R limits assumed: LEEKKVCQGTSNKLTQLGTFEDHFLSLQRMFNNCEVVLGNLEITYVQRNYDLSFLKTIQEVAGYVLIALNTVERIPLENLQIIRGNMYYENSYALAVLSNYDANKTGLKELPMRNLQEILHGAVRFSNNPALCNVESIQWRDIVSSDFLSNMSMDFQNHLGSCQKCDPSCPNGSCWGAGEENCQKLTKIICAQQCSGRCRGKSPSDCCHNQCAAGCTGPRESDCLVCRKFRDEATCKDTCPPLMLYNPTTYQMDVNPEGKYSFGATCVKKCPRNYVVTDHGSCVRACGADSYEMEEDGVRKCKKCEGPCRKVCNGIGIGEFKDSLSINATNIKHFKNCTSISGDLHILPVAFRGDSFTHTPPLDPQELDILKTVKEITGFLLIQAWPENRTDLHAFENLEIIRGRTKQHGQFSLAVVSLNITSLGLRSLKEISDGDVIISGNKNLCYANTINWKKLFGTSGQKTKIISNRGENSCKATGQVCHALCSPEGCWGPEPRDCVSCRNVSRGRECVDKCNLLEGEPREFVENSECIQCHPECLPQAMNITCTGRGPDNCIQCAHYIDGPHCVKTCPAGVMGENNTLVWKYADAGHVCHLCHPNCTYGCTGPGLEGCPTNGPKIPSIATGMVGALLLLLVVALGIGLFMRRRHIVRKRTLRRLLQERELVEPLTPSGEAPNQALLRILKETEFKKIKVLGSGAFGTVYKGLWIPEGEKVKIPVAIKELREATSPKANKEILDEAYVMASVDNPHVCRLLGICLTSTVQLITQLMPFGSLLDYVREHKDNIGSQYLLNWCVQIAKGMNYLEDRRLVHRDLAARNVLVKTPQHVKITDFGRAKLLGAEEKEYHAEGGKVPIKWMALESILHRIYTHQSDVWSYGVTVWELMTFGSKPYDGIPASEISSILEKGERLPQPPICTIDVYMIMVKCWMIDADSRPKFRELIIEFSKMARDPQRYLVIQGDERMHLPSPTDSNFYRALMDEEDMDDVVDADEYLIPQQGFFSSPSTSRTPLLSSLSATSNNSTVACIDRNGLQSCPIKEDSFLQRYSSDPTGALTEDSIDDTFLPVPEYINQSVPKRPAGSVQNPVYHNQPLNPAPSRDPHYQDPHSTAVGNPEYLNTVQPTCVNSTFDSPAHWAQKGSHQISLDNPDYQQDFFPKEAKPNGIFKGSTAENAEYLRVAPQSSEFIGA
UniProt P00533, 25-1210 T790M/C797S/L858R limits assumed: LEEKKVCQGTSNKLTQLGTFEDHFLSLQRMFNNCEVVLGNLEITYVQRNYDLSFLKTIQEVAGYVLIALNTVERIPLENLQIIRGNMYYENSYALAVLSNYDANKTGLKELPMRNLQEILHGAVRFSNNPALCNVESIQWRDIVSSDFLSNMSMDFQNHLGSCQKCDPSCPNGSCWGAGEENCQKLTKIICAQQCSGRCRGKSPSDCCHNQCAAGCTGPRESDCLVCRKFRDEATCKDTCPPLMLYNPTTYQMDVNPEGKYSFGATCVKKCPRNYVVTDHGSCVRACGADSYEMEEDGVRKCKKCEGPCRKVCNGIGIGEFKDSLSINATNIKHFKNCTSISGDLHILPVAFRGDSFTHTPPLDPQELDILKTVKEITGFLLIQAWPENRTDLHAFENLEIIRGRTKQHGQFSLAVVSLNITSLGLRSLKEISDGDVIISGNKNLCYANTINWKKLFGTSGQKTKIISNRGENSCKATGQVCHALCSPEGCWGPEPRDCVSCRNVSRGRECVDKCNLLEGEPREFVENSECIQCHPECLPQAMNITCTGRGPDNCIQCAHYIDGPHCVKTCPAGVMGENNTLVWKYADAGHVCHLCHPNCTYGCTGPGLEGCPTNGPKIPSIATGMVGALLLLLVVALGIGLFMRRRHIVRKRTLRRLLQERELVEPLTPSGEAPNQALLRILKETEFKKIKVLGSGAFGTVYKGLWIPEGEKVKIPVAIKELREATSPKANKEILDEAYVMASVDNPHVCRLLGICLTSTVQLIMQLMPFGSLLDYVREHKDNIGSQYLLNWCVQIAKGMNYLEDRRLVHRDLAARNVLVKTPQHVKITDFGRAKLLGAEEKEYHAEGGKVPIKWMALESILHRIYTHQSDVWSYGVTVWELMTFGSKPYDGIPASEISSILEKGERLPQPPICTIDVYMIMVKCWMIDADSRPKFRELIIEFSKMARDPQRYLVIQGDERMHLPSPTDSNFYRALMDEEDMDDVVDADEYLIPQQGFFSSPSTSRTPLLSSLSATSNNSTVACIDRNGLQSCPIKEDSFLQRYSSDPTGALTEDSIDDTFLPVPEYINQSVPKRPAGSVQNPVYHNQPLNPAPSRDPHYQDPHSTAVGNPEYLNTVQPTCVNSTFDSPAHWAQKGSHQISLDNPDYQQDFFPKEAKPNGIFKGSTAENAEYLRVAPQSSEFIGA
UniProt P00533, with tags, fused parts or gaps DEL746-750/C797S limits assumed: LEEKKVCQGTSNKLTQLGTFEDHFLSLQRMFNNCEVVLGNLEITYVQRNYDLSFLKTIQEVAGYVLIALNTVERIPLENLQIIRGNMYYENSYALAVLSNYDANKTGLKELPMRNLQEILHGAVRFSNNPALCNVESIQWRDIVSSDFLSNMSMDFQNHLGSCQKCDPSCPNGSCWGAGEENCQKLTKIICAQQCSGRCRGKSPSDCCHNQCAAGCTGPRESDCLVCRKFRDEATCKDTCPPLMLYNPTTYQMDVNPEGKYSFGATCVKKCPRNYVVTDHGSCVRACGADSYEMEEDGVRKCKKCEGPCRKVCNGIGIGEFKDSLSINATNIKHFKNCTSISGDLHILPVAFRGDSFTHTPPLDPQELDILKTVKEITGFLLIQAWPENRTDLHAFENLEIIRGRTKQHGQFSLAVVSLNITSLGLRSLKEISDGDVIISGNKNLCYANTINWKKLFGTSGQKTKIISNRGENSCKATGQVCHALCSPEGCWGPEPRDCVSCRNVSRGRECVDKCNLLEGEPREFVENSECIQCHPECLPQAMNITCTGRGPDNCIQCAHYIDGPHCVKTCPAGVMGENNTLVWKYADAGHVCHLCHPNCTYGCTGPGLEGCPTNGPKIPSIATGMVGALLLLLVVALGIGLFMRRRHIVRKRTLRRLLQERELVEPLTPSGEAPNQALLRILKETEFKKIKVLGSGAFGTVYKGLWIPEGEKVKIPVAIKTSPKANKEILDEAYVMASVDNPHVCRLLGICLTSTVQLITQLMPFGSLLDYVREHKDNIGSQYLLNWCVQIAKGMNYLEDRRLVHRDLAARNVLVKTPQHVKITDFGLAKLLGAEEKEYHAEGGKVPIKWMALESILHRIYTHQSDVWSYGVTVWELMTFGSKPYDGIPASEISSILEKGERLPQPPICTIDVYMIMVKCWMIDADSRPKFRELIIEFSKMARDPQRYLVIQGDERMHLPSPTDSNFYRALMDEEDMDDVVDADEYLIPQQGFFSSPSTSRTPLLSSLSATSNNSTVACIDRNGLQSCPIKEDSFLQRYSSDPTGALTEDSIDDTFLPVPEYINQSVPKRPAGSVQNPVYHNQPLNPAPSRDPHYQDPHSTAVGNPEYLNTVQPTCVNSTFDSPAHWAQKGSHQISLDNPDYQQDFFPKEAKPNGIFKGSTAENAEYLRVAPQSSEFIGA
UniProt P00533, with tags, fused parts or gaps DEL746-750/T790M/C797S limits assumed: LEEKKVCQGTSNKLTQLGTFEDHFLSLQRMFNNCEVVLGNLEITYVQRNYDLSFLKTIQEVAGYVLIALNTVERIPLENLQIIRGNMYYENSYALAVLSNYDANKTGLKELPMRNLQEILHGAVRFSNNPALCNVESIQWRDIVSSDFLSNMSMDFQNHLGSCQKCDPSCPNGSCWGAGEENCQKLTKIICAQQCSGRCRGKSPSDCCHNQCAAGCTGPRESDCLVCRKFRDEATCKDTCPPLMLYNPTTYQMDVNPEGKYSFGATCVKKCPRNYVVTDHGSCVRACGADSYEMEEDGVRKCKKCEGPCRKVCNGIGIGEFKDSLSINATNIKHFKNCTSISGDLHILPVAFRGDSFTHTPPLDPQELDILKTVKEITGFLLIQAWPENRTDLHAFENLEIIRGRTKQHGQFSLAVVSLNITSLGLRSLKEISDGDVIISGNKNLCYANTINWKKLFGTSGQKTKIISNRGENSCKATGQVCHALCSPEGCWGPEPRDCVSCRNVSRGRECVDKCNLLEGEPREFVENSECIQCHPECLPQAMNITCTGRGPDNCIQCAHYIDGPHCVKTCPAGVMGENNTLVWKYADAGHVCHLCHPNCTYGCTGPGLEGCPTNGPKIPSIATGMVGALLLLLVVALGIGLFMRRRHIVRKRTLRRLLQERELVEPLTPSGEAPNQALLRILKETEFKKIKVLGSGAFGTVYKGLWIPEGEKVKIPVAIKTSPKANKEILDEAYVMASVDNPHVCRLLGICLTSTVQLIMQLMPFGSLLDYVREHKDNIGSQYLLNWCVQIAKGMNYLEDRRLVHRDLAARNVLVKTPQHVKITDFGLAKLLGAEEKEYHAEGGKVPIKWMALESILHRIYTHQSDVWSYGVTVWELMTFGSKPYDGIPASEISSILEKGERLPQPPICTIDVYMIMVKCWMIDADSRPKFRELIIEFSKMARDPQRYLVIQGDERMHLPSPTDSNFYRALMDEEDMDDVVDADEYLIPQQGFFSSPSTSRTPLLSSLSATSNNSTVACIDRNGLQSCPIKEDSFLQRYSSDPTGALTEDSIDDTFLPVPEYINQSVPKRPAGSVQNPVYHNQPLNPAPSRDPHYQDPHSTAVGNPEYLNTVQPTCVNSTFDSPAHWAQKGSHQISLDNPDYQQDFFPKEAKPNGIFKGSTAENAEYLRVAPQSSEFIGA
UniProt P00533, 25-1210 limits assumed: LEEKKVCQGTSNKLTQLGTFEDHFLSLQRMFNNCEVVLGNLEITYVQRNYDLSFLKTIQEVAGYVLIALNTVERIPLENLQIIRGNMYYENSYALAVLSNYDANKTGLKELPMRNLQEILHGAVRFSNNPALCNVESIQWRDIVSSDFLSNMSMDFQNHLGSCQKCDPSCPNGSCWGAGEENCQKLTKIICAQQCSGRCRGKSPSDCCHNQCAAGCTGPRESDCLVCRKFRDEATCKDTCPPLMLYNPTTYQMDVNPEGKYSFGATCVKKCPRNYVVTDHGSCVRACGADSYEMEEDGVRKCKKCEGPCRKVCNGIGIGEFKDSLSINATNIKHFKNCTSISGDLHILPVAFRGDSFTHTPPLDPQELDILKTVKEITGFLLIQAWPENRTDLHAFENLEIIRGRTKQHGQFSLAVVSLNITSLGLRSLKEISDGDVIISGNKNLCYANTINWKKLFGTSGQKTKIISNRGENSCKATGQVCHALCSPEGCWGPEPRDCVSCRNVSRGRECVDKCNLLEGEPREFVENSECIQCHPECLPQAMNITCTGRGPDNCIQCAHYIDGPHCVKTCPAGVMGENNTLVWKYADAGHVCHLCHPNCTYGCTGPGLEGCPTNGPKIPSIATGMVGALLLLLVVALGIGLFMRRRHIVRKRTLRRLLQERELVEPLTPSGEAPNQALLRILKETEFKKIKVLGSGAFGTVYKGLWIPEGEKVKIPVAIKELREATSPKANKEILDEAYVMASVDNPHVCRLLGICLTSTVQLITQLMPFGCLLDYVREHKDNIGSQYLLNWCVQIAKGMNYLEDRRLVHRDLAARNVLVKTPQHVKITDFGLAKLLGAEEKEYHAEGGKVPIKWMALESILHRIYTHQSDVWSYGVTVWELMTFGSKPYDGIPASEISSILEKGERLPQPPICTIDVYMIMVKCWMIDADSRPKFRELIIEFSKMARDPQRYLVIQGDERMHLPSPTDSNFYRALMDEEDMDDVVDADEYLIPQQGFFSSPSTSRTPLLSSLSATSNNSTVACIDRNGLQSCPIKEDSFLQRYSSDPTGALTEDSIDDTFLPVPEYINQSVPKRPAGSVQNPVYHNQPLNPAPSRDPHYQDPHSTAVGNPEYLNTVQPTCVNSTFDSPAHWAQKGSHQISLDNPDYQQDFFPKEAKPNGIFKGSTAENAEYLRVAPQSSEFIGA

Tests used:
[1] = target: EGFR D19TMCS (del19/T790M/C797S) (Homo sapiens, UniProt P00533, C797S/DEL746-750/T790M); experiment: Biochemical EGFR kinase inhibition (Lance Ultra TR-FRET), del19/T790M/C797S; conditions: read-out: EGFR D19TMCS IC50
EGFR WT = EGFR WT (Homo sapiens, UniProt P00533); experiment: Biochemical EGFR kinase inhibition (Lance Ultra TR-FRET), wildtype; conditions: read-out: EGFR WT IC50; ATP at Km
EGFR LRCS (L858R/C797S) = EGFR LRCS (L858R/C797S) (Homo sapiens, UniProt P00533, C797S/L858R); experiment: Biochemical EGFR kinase inhibition (Lance Ultra TR-FRET), L858R/C797S; conditions: read-out: EGFR LRCS IC50
[2] = target: EGFR LRTMCS (L858R/T790M/C797S) (Homo sapiens, UniProt P00533, C797S/L858R/T790M); experiment: Biochemical EGFR kinase inhibition (Lance Ultra TR-FRET), L858R/T790M/C797S; conditions: read-out: EGFR LRTMCS IC50
EGFR D19CS (del19/C797S) = EGFR D19CS (del19/C797S) (Homo sapiens, UniProt P00533, C797S/DEL746-750); experiment: Biochemical EGFR kinase inhibition (Lance Ultra TR-FRET), del19/C797S; conditions: read-out: EGFR D19CS IC50

SMILES: C[C@H]1CCNc2cc(ncc2C#Cc2cnn(CC(F)F)c2)Nc2ccnc(n2)-c2cnn(C)c2O1
- IC50 ([1]; 1 mM ATP): < 10 nM
- IC50 ([1]; ATP at Km): < 10 nM
- IC50 (EGFR WT): 10 to 100 nM
- IC50 (EGFR LRCS (L858R/C797S); 1 mM ATP): 10 to 100 nM
- IC50 (EGFR LRCS (L858R/C797S); ATP at Km): < 10 nM
- IC50 ([2]; 1 mM ATP): < 10 nM
- IC50 ([2]; ATP at Km): < 10 nM
- IC50 (EGFR D19CS (del19/C797S); 1 mM ATP): 10 to 100 nM
- IC50 (EGFR D19CS (del19/C797S); ATP at Km): < 10 nM

SMILES: Cc1nn(C)c2c1-c1nccc(n1)Nc1cc(c(C#Cc3cn(C)nc3C#N)cn1)NCC[C@@H](C)O2
- IC50 ([1]; 1 mM ATP): < 10 nM
- IC50 ([1]; ATP at Km): < 10 nM
- IC50 (EGFR WT): 100 to 1000 nM
- IC50 (EGFR LRCS (L858R/C797S); 1 mM ATP): 100 to 1000 nM
- IC50 (EGFR LRCS (L858R/C797S); ATP at Km): < 10 nM
- IC50 ([2]; 1 mM ATP): < 10 nM
- IC50 ([2]; ATP at Km): < 10 nM
- IC50 (EGFR D19CS (del19/C797S); 1 mM ATP): 10 to 100 nM
- IC50 (EGFR D19CS (del19/C797S); ATP at Km): < 10 nM

SMILES: Cn1ncc2c1OCC(C)(C)CNc1cc(ncc1C#Cc1cnn(CC(F)(F)F)c1)Nc1ccnc-2n1
- IC50 ([1]; 1 mM ATP): 10 to 100 nM
- IC50 ([1]; ATP at Km): < 10 nM
- IC50 (EGFR WT): 100 to 1000 nM
- IC50 (EGFR LRCS (L858R/C797S); 1 mM ATP): > 1000 nM
- IC50 (EGFR LRCS (L858R/C797S); ATP at Km): > 1000 nM
- IC50 ([2]; 1 mM ATP): 10 to 100 nM
- IC50 ([2]; ATP at Km): 10 to 100 nM
- IC50 (EGFR D19CS (del19/C797S); 1 mM ATP): > 1000 nM
- IC50 (EGFR D19CS (del19/C797S); ATP at Km): > 1000 nM

SMILES: Cn1cc(C#Cc2cnc3cc2NC[C@H](F)COc2c(cnn2C)-c2nccc(n2)N3)cn1
- IC50 ([1]; 1 mM ATP): < 10 nM
- IC50 ([1]; ATP at Km): < 10 nM
- IC50 (EGFR WT): 100 to 1000 nM
- IC50 (EGFR LRCS (L858R/C797S); 1 mM ATP): > 1000 nM
- IC50 (EGFR LRCS (L858R/C797S); ATP at Km): 100 to 1000 nM
- IC50 ([2]; 1 mM ATP): 10 to 100 nM
- IC50 ([2]; ATP at Km): < 10 nM
- IC50 (EGFR D19CS (del19/C797S); 1 mM ATP): > 1000 nM
- IC50 (EGFR D19CS (del19/C797S); ATP at Km): 100 to 1000 nM

SMILES: Cc1nn(C)cc1C#Cc1cnc2cc1NCC[C@@H](C)Oc1c(c(C)nn1C)-c1nccc(n1)N2
- IC50 ([1]; 1 mM ATP): < 10 nM
- IC50 ([1]; ATP at Km): < 10 nM
- IC50 (EGFR WT): 10 to 100 nM
- IC50 (EGFR LRCS (L858R/C797S); 1 mM ATP): 100 to 1000 nM
- IC50 (EGFR LRCS (L858R/C797S); ATP at Km): < 10 nM
- IC50 ([2]; 1 mM ATP): < 10 nM
- IC50 ([2]; ATP at Km): < 10 nM
- IC50 (EGFR D19CS (del19/C797S); 1 mM ATP): 10 to 100 nM
- IC50 (EGFR D19CS (del19/C797S); ATP at Km): < 10 nM

SMILES: Cc1nn(C)c2c1-c1nccc(n1)Nc1cc(c(C#Cc3ccc(S(C)(=O)=O)cc3)cn1)NCC[C@H](C)O2
- IC50 ([1]; 1 mM ATP): < 10 nM
- IC50 ([1]; ATP at Km): < 10 nM
- IC50 (EGFR WT): < 10 nM
- IC50 (EGFR LRCS (L858R/C797S); 1 mM ATP): 10 to 100 nM
- IC50 (EGFR LRCS (L858R/C797S); ATP at Km): < 10 nM
- IC50 ([2]; 1 mM ATP): < 10 nM
- IC50 ([2]; ATP at Km): < 10 nM
- IC50 (EGFR D19CS (del19/C797S); 1 mM ATP): < 10 nM
- IC50 (EGFR D19CS (del19/C797S); ATP at Km): < 10 nM

SMILES: C[C@@H]1CCOc2c(cnn2C)-c2nccc(n2)Nc2cc(c(C#Cc3cnn(C(F)(F)F)c3)cn2)N1
- IC50 ([1]; 1 mM ATP): < 10 nM
- IC50 ([1]; ATP at Km): < 10 nM
- IC50 (EGFR WT): > 1000 nM
- IC50 (EGFR LRCS (L858R/C797S); 1 mM ATP): > 1000 nM
- IC50 (EGFR LRCS (L858R/C797S); ATP at Km): > 1000 nM
- IC50 ([2]; 1 mM ATP): > 1000 nM
- IC50 ([2]; ATP at Km): 10 to 100 nM
- IC50 (EGFR D19CS (del19/C797S); 1 mM ATP): > 1000 nM
- IC50 (EGFR D19CS (del19/C797S); ATP at Km): > 1000 nM

SMILES: C[C@H]1CCNc2cc(ncc2C#Cc2cnn(C3CCOCC3)c2)Nc2ccnc(n2)-c2cnn(C)c2O1
- IC50 ([1]; 1 mM ATP): < 10 nM
- IC50 ([1]; ATP at Km): < 10 nM
- IC50 (EGFR WT): 10 to 100 nM
- IC50 (EGFR LRCS (L858R/C797S); 1 mM ATP): 100 to 1000 nM
- IC50 (EGFR LRCS (L858R/C797S); ATP at Km): < 10 nM
- IC50 ([2]; 1 mM ATP): < 10 nM
- IC50 ([2]; ATP at Km): < 10 nM
- IC50 (EGFR D19CS (del19/C797S); 1 mM ATP): 10 to 100 nM
- IC50 (EGFR D19CS (del19/C797S); ATP at Km): < 10 nM

SMILES: Cc1nn(C)c2c1-c1nccc(n1)Nc1cc(c(C#Cc3ccc(S(C)(=O)=O)cc3)cn1)N[C@@H](C)CCO2
- IC50 ([1]; 1 mM ATP): < 10 nM
- IC50 ([1]; ATP at Km): < 10 nM
- IC50 (EGFR WT): 10 to 100 nM
- IC50 (EGFR LRCS (L858R/C797S); 1 mM ATP): 100 to 1000 nM
- IC50 (EGFR LRCS (L858R/C797S); ATP at Km): < 10 nM
- IC50 ([2]; 1 mM ATP): < 10 nM
- IC50 ([2]; ATP at Km): < 10 nM
- IC50 (EGFR D19CS (del19/C797S); 1 mM ATP): 10 to 100 nM
- IC50 (EGFR D19CS (del19/C797S); ATP at Km): < 10 nM

SMILES: Cc1nn(C)c2c1-c1nccc(n1)Nc1cc(c(C#Cc3cnn(C(F)(F)F)c3)cn1)N[C@@H](C)CCO2
- IC50 ([1]; 1 mM ATP): < 10 nM
- IC50 ([1]; ATP at Km): < 10 nM
- IC50 (EGFR WT): 10 to 100 nM
- IC50 (EGFR LRCS (L858R/C797S); 1 mM ATP): > 1000 nM
- IC50 (EGFR LRCS (L858R/C797S); ATP at Km): 10 to 100 nM
- IC50 ([2]; 1 mM ATP): < 10 nM
- IC50 ([2]; ATP at Km): < 10 nM
- IC50 (EGFR D19CS (del19/C797S); 1 mM ATP): 10 to 100 nM
- IC50 (EGFR D19CS (del19/C797S); ATP at Km): 10 to 100 nM

SMILES: Cn1ncc2c1OCCC(C)(C)Nc1cc(ncc1C#Cc1cnn(CC(F)(F)F)c1)Nc1ccnc-2n1
- IC50 ([1]; 1 mM ATP): 10 to 100 nM
- IC50 ([1]; ATP at Km): 10 to 100 nM
- IC50 (EGFR WT): > 1000 nM
- IC50 (EGFR LRCS (L858R/C797S); 1 mM ATP): > 1000 nM
- IC50 (EGFR LRCS (L858R/C797S); ATP at Km): 100 to 1000 nM
- IC50 ([2]; 1 mM ATP): 100 to 1000 nM
- IC50 ([2]; ATP at Km): < 10 nM
- IC50 (EGFR D19CS (del19/C797S); 1 mM ATP): > 1000 nM
- IC50 (EGFR D19CS (del19/C797S); ATP at Km): > 1000 nM

SMILES: C[C@H]1CCOc2c(cnn2CC(F)(F)F)-c2nccc(n2)Nc2cc(c(C#Cc3cnn(C(F)F)c3)cn2)N1
- IC50 ([1]; 1 mM ATP): 10 to 100 nM
- IC50 ([1]; ATP at Km): < 10 nM
- IC50 (EGFR WT): 100 to 1000 nM
- IC50 (EGFR LRCS (L858R/C797S); 1 mM ATP): > 1000 nM
- IC50 (EGFR LRCS (L858R/C797S); ATP at Km): 100 to 1000 nM
- IC50 ([2]; 1 mM ATP): < 10 nM
- IC50 ([2]; ATP at Km): < 10 nM
- IC50 (EGFR D19CS (del19/C797S); 1 mM ATP): > 1000 nM
- IC50 (EGFR D19CS (del19/C797S); ATP at Km): 100 to 1000 nM

SMILES: C[C@H]1CCOc2c(cnn2C)-c2nccc(n2)Nc2cc(c(C#Cc3cnn(C4CC4(F)F)c3)cn2)N1 (stereo partly drawn)
- IC50 ([1]; 1 mM ATP): < 10 nM
- IC50 ([1]; ATP at Km): < 10 nM
- IC50 (EGFR WT): 10 to 100 nM
- IC50 (EGFR LRCS (L858R/C797S); 1 mM ATP): 100 to 1000 nM
- IC50 (EGFR LRCS (L858R/C797S); ATP at Km): 10 to 100 nM
- IC50 ([2]; 1 mM ATP): < 10 nM
- IC50 ([2]; ATP at Km): < 10 nM
- IC50 (EGFR D19CS (del19/C797S); 1 mM ATP): 10 to 100 nM
- IC50 (EGFR D19CS (del19/C797S); ATP at Km): < 10 nM

SMILES: Cc1nn(C)c2c1-c1nccc(n1)Nc1cc(c(C#Cc3cnn(CC(F)F)c3)cn1)NCC[C@H](C)O2
- IC50 ([1]; 1 mM ATP): < 10 nM
- IC50 ([1]; ATP at Km): < 10 nM
- IC50 (EGFR WT): < 10 nM
- IC50 (EGFR LRCS (L858R/C797S); 1 mM ATP): 10 to 100 nM
- IC50 (EGFR LRCS (L858R/C797S); ATP at Km): < 10 nM
- IC50 ([2]; 1 mM ATP): < 10 nM
- IC50 ([2]; ATP at Km): < 10 nM
- IC50 (EGFR D19CS (del19/C797S); 1 mM ATP): < 10 nM
- IC50 (EGFR D19CS (del19/C797S); ATP at Km): < 10 nM
